# Earlier results, collected in article PMC3726369.
# Amino acid sequences for entries named in this document (tags omitted). Residues count along the entry.
# UniProt P23945, 18-695: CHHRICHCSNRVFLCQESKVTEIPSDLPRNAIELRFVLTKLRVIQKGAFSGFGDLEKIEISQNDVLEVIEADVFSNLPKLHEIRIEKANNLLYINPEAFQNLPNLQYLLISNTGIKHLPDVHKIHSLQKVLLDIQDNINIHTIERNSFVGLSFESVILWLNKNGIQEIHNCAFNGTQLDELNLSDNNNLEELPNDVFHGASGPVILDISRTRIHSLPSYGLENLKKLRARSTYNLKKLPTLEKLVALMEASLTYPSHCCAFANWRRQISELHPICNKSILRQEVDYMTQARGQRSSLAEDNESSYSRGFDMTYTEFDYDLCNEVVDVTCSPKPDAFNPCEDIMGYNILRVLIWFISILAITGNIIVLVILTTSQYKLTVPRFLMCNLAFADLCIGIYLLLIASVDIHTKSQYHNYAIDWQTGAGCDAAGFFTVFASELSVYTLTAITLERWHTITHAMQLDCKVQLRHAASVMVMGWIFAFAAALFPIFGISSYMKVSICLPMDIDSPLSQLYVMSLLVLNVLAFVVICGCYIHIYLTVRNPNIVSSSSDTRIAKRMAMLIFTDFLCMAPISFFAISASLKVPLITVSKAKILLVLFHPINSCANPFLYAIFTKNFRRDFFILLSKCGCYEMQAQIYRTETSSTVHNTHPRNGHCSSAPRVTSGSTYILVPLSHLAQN
# UniProt P01215, 25-116: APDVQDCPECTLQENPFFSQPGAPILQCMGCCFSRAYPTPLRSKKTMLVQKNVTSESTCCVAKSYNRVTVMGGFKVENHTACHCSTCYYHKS
# Several values for one entry are separate records, joined by “and”; a condition that tells them apart may be missing. Identical values can stand only once. Like-named read-outs stand apart in the source and are kept apart here.
# Key:
# [1] = target: FSH receptor (Homo sapiens) (UniProt P23945); test: given as Ka
# [2] = target: FSH receptor (Homo sapiens) (UniProt P23945)
substance,measurement,setting,value
FSH (from UniProt P01215),Kd,[1],0.333 nM
same,Kd,[2],0.15 nM and 0.94 nM
